## Binding of CDR-mutated scFvs to a peptide of the spike HR2 region

Values reported by Li et al. 2023, doi:10.1038/s41467-023-39022-2 (FLAb copy).

The target is the same throughout: PDVDLGDISGINAS, from the HR2 region of SARS-CoV-2 spike.

Parent: Ab-14, a human scFv built as VH, three GGGGS repeats, VL. Only the CDRs of the light chain vary.
VH: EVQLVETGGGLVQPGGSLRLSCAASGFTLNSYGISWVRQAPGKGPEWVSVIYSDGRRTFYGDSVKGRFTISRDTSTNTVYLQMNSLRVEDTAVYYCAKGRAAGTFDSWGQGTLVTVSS
VL: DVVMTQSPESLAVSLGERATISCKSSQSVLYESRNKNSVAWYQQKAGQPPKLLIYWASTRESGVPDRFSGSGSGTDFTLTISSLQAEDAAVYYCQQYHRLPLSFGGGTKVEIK

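The parent was found by panning a naive human phage display library on the peptide. The variants were designed computationally from a first round of random CDR variants and then made and measured. Their group label is 14L_En_HC (En: ensemble of fine-tuned language models; HC: hill climbing; a sequence that several methods proposed may carry one label only). AlphaSeq pools MATa yeast showing the antibodies with MATalpha yeast showing the peptide. Binding brings cells together so that they mate, and sequencing counts the barcode pairs among the diploids. The ratio of observed to expected reads was calibrated, replicate by replicate, on BCL2-family standards whose Kd was known from biolayer interferometry. The assay was run in six technical replicates.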

Each variant is given by its three light chain CDRs, as the data file delimits them; those of the parent are KSSQSVLYESRNKNSVA, WASTRES, QQYHRLPLS. Values are log10 of the apparent Kd in nM; lower means stronger binding. Replicates are averaged; those with no signal do not enter the mean. "n.d." marks a missing value. The strain was present, yet no cells mated with the target were sequenced in that replicate, which points to weak or no binding. In the paper, a design with two or fewer of six values counts as a poor binder. Empty control strains, which show no peptide, gave a signal in 4% of pairings with all light chain designs; the median was 2.64 and 95% of these signals were weaker than 1.59. No background was subtracted. The control count says in how many pairings with the empty strains this scFv gave a signal, with their mean in brackets. The parent sequence was in this pool as ten entries: three were never detected, three once, and four in most replicates, with averages from 0.34 to 2.37. A sequence measured in both rounds can read differently, since the two assays cover different ranges.

| # | CDR-L1 | CDR-L2 | CDR-L3 | log10 Kd (nM) by replicate | mean log10 Kd (nM) | signal with controls |
|---|---|---|---|---|---|---|
| 1 | KLREVQHVETKKKNNVA | DNSTRES | QDYYRLPLS | n.d. / n.d. / n.d. / n.d. / n.d. / n.d. | n.d. | 0/18 |
| 2 | KLTATYRFESQNKNNIA | EMTTRES | QCYHRLPLS | 2.85 / 2.53 / 2.92 / n.d. / n.d. / 1.36 | 2.41 | 1/18 (1.94) |
| 3 | HFSQVTMYGYWNYNSVA | QTSTREE | QQYDRLPLS | n.d. / 2.34 / 3.17 / 2.00 / n.d. / 4.10 | 2.90 | 0/18 |
| 4 | NVGQSMLGESHNKNSVA | HQSTRED | QHYHRLPLS | 0.35 / 0.70 / 0.46 / 0.66 / 0.72 / 0.77 | 0.61 | 0/18 |
| 5 | SLMQVGGYESNNKNSIA | DLRTREH | QQYHRLPLS | 1.15 / 0.95 / 0.63 / 0.49 / 0.83 / 0.69 | 0.79 | 0/18 |
| 6 | KISMLYNYESTNKNSIA | EMTTREE | QHYHRLPLS | n.d. / 1.14 / 2.39 / n.d. / n.d. / n.d. | 1.77 | 0/18 |
| 7 | TLTQVTMVESYNKDSVA | QASTREE | QDYHRLPLS | 1.18 / 0.87 / 1.14 / 0.50 / 0.39 / 0.89 | 0.83 | 0/18 |
| 8 | IISQVDGYLMHNTNSIA | DQTTRGS | QQYDRLPLS | 0.63 / 0.62 / 0.93 / 0.81 / 1.25 / 0.91 | 0.86 | 0/18 |
| 9 | KLRQVTGYESYLRNNVA | QMSTRAE | QDYHRLPLS | 0.70 / 0.38 / 0.24 / -0.16 / 0.48 / 0.39 | 0.34 | 1/18 (2.27) |
| 10 | TIGAATLEESRNKNSVA | EMSLREN | QSYNRLPLS | 1.38 / 0.90 / 0.84 / 0.72 / 0.74 / 0.76 | 0.89 | 4/18 (3.34) |
| 11 | QLLMATMQGAYNRNSVA | HAQTRND | QSYHRLPLS | 1.05 / 1.91 / 1.09 / 2.11 / 1.73 / 1.39 | 1.55 | 3/18 (2.34) |
| 12 | MLGDVTRMESNKKNSIA | DMSTRES | QQYHRLPLS | 0.11 / -0.17 / -0.21 / -0.32 / -0.24 / -0.04 | -0.14 | 2/18 (2.80) |
| 13 | KISMTYRYESTASNSIA | EMTTRAE | QSYHRLPLS | n.d. / n.d. / 1.92 / n.d. / 2.19 / 1.70 | 1.94 | 0/18 |
| 14 | LISGVWDYGSRNYNSVA | QTSTREE | QQYDRLPLE | 1.38 / 1.54 / 0.90 / 1.10 / 1.00 / 1.11 | 1.17 | 0/18 |
| 15 | QLGAVMDMTSKNKNSVA | EQSTREN | QQYHRLPLS | 0.64 / 0.62 / 0.46 / 0.54 / 0.61 / 0.80 | 0.61 | 0/18 |
| 16 | TLGGVMDMTTKNVNSVA | DLTTRGN | QQYHRLPLS | 0.27 / 0.40 / 0.31 / 0.29 / 0.28 / 0.31 | 0.31 | 0/18 |
| 17 | KISGYLNKESKNANSVA | EMVNRES | QQYDRLPLS | 1.16 / 1.18 / 1.16 / 0.67 / 0.78 / 1.39 | 1.05 | 1/18 (1.61) |
| 18 | KISQVFMMTGKLKNSVA | NALTRVQ | QQYHRLPLS | 0.82 / 0.58 / 0.65 / 0.40 / 0.39 / 0.74 | 0.60 | 0/18 |
| 19 | KLYFNVGTMTHNKQSIA | DMERRED | QQYHRLPLS | 0.31 / 0.27 / 0.21 / 0.08 / 0.26 / 0.19 | 0.22 | 2/18 (2.88) |
| 20 | NVGQIMDGETRNRNNVA | HQSTRED | QHYHRLPLS | 0.08 / -0.02 / 0.03 / -0.24 / -0.10 / 0.15 | -0.02 | 3/18 (3.42) |
| 21 | MIAQGLRGLGRNKNSVA | NAQTRES | QHYHRLPLS | 0.83 / 0.66 / 0.67 / 0.72 / 1.19 / 1.24 | 0.89 | 0/18 |
| 22 | LISGVWDYGSRNYNSVA | QTSTRES | QQYDRLPLV | 1.35 / 0.87 / 1.41 / 1.08 / 1.23 / 1.40 | 1.23 | 1/18 (2.71) |
| 23 | KISMSTTFESRNKNSVA | ENSTRES | QFYHRLPLS | n.d. / n.d. / n.d. / n.d. / n.d. / n.d. | n.d. | 0/18 |
| 24 | TLGQSTMVEQYNKNSVA | QASTREE | QDYHRLPLS | 0.48 / n.d. / n.d. / n.d. / 0.17 / n.d. | 0.33 | 0/18 |
| 25 | NISESMYFQSRIKNNIA | EMSTRER | QHYHRLPLS | 1.71 / 1.27 / 1.75 / 1.22 / 1.43 / 1.21 | 1.43 | 3/18 (2.51) |
| 26 | QLGDMVHTESRNKNSIA | DMRTREK | QQYYRLPLS | 0.49 / 0.35 / 0.14 / 0.46 / 0.29 / 0.64 | 0.40 | 0/18 |
| 27 | KLPQSTMLESVSKNSVA | ELSTRGS | QQYHRLPLS | 0.75 / 0.84 / 0.56 / 0.79 / 0.86 / 1.29 | 0.85 | 2/18 (2.50) |
| 28 | TISNTFMMENQFKNSVA | QASTRES | QCYDRLPLS | n.d. / n.d. / 1.49 / n.d. / 2.03 / 2.25 | 1.92 | 0/18 |
| 29 | MFSQLTYTGSRARNAVA | QAETRLN | QQYHHLPLI | 1.48 / 1.20 / 1.21 / 1.60 / 2.03 / 2.57 | 1.68 | 1/18 (3.44) |
| 30 | KLSISHLVESINKSNVA | EMVTRES | QQYDRLPLS | n.d. / n.d. / 2.14 / 2.23 / 2.59 / 2.21 | 2.29 | 1/18 (2.30) |
| 31 | MFSQSVMYGSFLRNSVA | QTSTRES | QQYDRLPLS | 0.34 / 0.42 / 0.17 / 0.27 / 0.30 / 0.80 | 0.39 | 0/18 |
| 32 | ALSQSMDMTSRNMNSVA | DLTTREN | QQYHRLPLS | 0.48 / 0.42 / 0.17 / 0.30 / 0.21 / 0.35 | 0.32 | 1/18 (2.92) |
| 33 | KLSQLFYKESKNKNNVA | EMTTRGS | QQYDRLPLS | 1.68 / 1.36 / 1.40 / 2.03 / 1.54 / 1.71 | 1.62 | 2/18 (2.54) |
| 34 | IITQSVMQESRNKSNVA | NTSERES | QQYARLPLI | 1.12 / 0.89 / 1.12 / 1.01 / 1.11 / 0.88 | 1.02 | 0/18 |
| 35 | ALQDVTRMESNKKNSIA | DMSTRES | QQYHRLPLS | 2.22 / 1.73 / 2.91 / 1.63 / 1.95 / 2.73 | 2.20 | 0/18 |
| 36 | MVGQGLMGESRAKNSIA | HASTRFD | QHYHRLPLI | 1.63 / 1.42 / 1.25 / 1.16 / 1.51 / 1.38 | 1.39 | 1/18 (3.03) |
| 37 | TISTSALYESINKNNVA | ELSTRGS | QQYERLPLS | 0.29 / 0.42 / 0.19 / 0.36 / 0.36 / 0.43 | 0.34 | 0/18 |
| 38 | HISQMVMYGSCNKNNVA | QVTTREE | QQYHRLPLS | 0.26 / 0.29 / 0.21 / 0.19 / 0.17 / 0.74 | 0.31 | 5/18 (3.03) |
| 39 | KLRESIHVESKQKNNVA | ENSTRES | QDYHRLPLS | n.d. / n.d. / n.d. / n.d. / 2.67 / n.d. | 2.67 | 2/18 (2.33) |
| 40 | KISMSYRYESQEKNSIA | EMSTREE | QSYHRLPLS | 1.39 / 1.42 / 1.27 / 1.06 / 1.11 / 1.19 | 1.24 | 1/18 (2.36) |
| 41 | ILSQMMLTAGNKHNSVA | QANNRES | QQYHRLPLS | n.d. / 0.73 / 0.86 / 1.38 / 0.70 / 1.94 | 1.12 | 1/18 (1.02) |
| 42 | TLMQVGGYEMNAHDSIA | DLRTREN | QQYHRLPLS | 0.94 / 1.52 / 1.10 / 1.30 / 1.37 / 0.96 | 1.20 | 0/18 |

For reference, 4 entries of the list once more:

| CDR-L1 | CDR-L2 | CDR-L3 | log10 Kd (nM) by replicate | mean log10 Kd (nM) | signal with controls |
|---|---|---|---|---|---|
| ALQDVTRMESNKKNSIA | DMSTRES | QQYHRLPLS | 2.22 / 1.73 / 2.91 / 1.63 / 1.95 / 2.73 | 2.20 | 0/18 |
| KLYFNVGTMTHNKQSIA | DMERRED | QQYHRLPLS | 0.31 / 0.27 / 0.21 / 0.08 / 0.26 / 0.19 | 0.22 | 2/18 (2.88) |
| KLREVQHVETKKKNNVA | DNSTRES | QDYYRLPLS | n.d. / n.d. / n.d. / n.d. / n.d. / n.d. | n.d. | 0/18 |
| TIGAATLEESRNKNSVA | EMSLREN | QSYNRLPLS | 1.38 / 0.90 / 0.84 / 0.72 / 0.74 / 0.76 | 0.89 | 4/18 (3.34) |